Earlier results on one substance are cited in patent publication US8076288B2 (priority 2004, dated 2011).

Protein sequences, listed by entry. Tags and fused reporters are not part of them.
UniProt P32238, whole entry: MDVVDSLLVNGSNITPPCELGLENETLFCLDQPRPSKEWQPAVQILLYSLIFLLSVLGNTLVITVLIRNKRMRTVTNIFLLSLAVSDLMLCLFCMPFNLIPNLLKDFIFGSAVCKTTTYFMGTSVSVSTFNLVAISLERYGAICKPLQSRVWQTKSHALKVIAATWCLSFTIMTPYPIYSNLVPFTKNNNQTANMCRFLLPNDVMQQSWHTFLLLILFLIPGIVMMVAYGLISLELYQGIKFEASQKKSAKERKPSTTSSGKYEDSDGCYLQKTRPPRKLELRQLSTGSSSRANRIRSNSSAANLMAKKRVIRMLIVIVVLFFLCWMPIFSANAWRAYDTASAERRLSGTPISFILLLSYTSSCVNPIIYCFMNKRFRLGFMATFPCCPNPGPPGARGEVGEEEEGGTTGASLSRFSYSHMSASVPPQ

This data set has as its target pancreatic CCK receptor (Homo sapiens, UniProt P32238). The conditions noted are these: cited from earlier work.

On to DY(SO3) MGWMDF-NH2 [CCK-8], for which the “potency in displacing binding relative to unsulfated CCK-8 or CCK-4” value is 1000-5000.
